The nature of the data set: Solubility in water by UPLC. It counts as physicochemical.

As for “(R)-8-chloro-1-methyl-2,3,4,5-tetrahydro-1H-3-benzazepine oxoglutarate salt [Compound 1 Oxoglutarate Salt, Form I]”, the solubility in water is over 65.1 mg/mL.

The values are drawn from patent US9365521B2, “Non-hygroscopic salts of 5-HT2C agonists” (Arena Pharmaceuticals, Inc., priority 2010, dated 2016).
